In publication PMC7588194, “Respiratory ß-2-Microglobulin exerts pH dependent antimicrobial activity” (Virulence, 2020):

What was measured:
[1] = test system: L. monocytogenes (ATCC BAA-679/EGD-e); assay: Radial diffusion assay; format: cell-based
Experimental: To identify library fractions and purified peptides with antibacterial activity a radial diffusion assay was carried out. Bacteria were cultured in liquid THY broth (Todd-Hewitt Broth [Oxoid, CM0189B] supplemented with 0.5% yeast extract [BD, Miami, USA, 212,750]) at 37°C overnight in a 5% CO2 atmosphere, pelleted by centrifugation and washed in 10 mM sodium phosphate buffer. Following resuspension in 10 mM sodium phosphate buffer optical density was determined spectrophotometrically at 600 nm (OD600nm). Bacterial density was adjusted to seed 2 × 10^7 bacteria into a petri dish in 1% agarose dissolved in 10 mM sodium phosphate buffer. Plates were allowed to cool for 30 min at 4°C before several 2–3 mm holes were placed into the 1% agarose. Freeze-dried fractions of the BAL library pool were reconstituted in 200 µl of ddH2O with 10 µl being used for the initial screen. Alternatively, peptides adjusted to the desired concentration in 10 µl of ddH2O were filled into the agar-holes. Following incubation at 37°C in ambient air for 3 h plates were overlaid with 10 ml of a 1% agarose solution containing 3% tryptic soy broth (TSB) dissolved in 10 mM phosphate buffer. Inhibition zones in cm were determined following 16–18 h incubation time at 37°C in a 5% CO2 atmosphere. […] Fibrils were generated by incubation of B2M of 1 mg/ml in 150 µl of 20% TSB NaPO4 adjusted to pH 7 and pH 4.5 for 30 min at 37°C. After centrifugation, the supernatant was collected and the pelleted fibrils were dissolved in 150 µl of the corresponding buffer. The supernatant and the fibril solutions were then assayed in a radial diffusion assay as described above.

[2] = test system: L. monocytogenes cells (ATCC BAA-679/EGD-e); assay: Survival assay (CFU); format: cell-based; settings: B2M 1 mg/ml, 37°C
Experimental: L. monocytogenes cells (ATCC BAA-679/EGD-e) were grown in THY broth at 37°C in a 5% CO2 atmosphere overnight. 1 ml of the culture adjusted to an OD600nm of 0.1 was centrifuged and the bacterial pellet was resuspended in 1 ml of assay medium (20% TSB dissolved in 20 mM NaPO4 adjusted to different pH values). 90 μl of the bacterial suspension was mixed with 10 μl of the desired concentration of B2M (Lee BioSolutions, St. Louis, Missouri, 126-12-10) or with 10 μl of ddH2O (negative control) followed by incubation at 37°C. Samples were taken at the indicated time points, dilutions were prepared and plated on Sheep blood agar plates (TSA+SB, Oxoid, Basingstoke, UK, […]). Colony Forming Units (CFU) were quantified after overnight incubation of the agar plates at 37°C in a 5% atmosphere. Bacterial survival was calculated in comparison to the CFU present at the beginning of the experiment (t = 0 min) and normalized to the mock-treated bacterial sample grown in the corresponding assay medium.

L. monocytogenes cells = assay: Transmission electron microscopy (TEM); format: cell-based; settings: B2M 1 mg/ml, 15 min, pH 4.5
Experimental: L. monocytogenes cells, grown to mid-exponential phase, were harvested by centrifugation and resuspended in 20% TSB dissolved in 20 mM NaPO4 (pH 4.5). Following treatment of 5 × 10^9 cells with 1 mg/ml B2M for 15 min at 37°C cells were pelleted by centrifugation and fixed with 2.5% glutaraldehyde containing 1% saccharose in phosphate buffer (pH 7.3). Samples were washed 5 times with phosphate buffer and postfixed in 2% aqueous osmium tetroxide. After dehydrating the samples in a graded series of 1-propanol, they were blockstained in 1% uranyl acetate and embedded in Epon. Sections were collected on copper grids, contrasted with 0.3% lead citrate for 1 min and imaged in a Zeiss TEM 109 or in a Jeol TEM 1400.

Bacillus subtilis = assay: Radial diffusion assay; format: cell-based; settings: different amounts of B2M (Figure 3a)
Experimental: (§1) To identify library fractions and purified peptides with antibacterial activity a radial diffusion assay was carried out. Bacteria were cultured in liquid THY broth (Todd-Hewitt Broth [Oxoid, CM0189B] supplemented with 0.5% yeast extract [BD, Miami, USA, 212,750]) at 37°C overnight in a 5% CO2 atmosphere, pelleted by centrifugation and washed in 10 mM sodium phosphate buffer. Following resuspension in 10 mM sodium phosphate buffer optical density was determined spectrophotometrically at 600 nm (OD600nm). Bacterial density was adjusted to seed 2 × 10^7 bacteria into a petri dish in 1% agarose dissolved in 10 mM sodium phosphate buffer. Plates were allowed to cool for 30 min at 4°C before several 2–3 mm holes were placed into the 1% agarose. Freeze-dried fractions of the BAL library pool were reconstituted in 200 µl of ddH2O with 10 µl being used for the initial screen. Alternatively, peptides adjusted to the desired concentration in 10 µl of ddH2O were filled into the agar-holes. Following incubation at 37°C in ambient air for 3 h plates were overlaid with 10 ml of a 1% agarose solution containing 3% tryptic soy broth (TSB) dissolved in 10 mM phosphate buffer. Inhibition zones in cm were determined following 16–18 h incubation time at 37°C in a 5% CO2 atmosphere.

[3] = test system: P. aeruginosa (ATCC 27853); assay: Radial diffusion assay; format: cell-based; settings: different amounts of B2M (Figure 3a)
Experimental: as §1

[4] = Thioflavin T (ThT) measurement of amyloid fibrils; format: physicochemical; settings: ThT fluorescence ex 450 nm / em 482 nm, two independent experiments
Experimental: To monitor the presence of amyloid fibrils, a 2.5 mM stock solution of ThT (Sigma-Aldrich, Schnelldorf, Germany, […]) in PBS was prepared and sterile filtered. 1 μl of this solution was added to 15 μl of the peptide sample (1 mg/ml), then the sample was filled up to 100 μl using 84 μl of PBS and incubated for 10 minutes in the dark, at room temperature. Of each preparation, 50 μl were transferred to one well of a Corning® 96 well black polystyrene microplate (Sigma-Aldrich, CLS3603). Fluorescence intensity scans were performed at an excitation wavelength of 450 nm and an emission at 482 nm, using a Synergy H1 hybrid multi-mode reader (Biotek, Bad Friedrichshall, Germany). All values represent fluorescence intensity derived from duplicates minus background activity derived from possible background fluorescence. Duplicates were expressed as mean ± standard error derived from two independent experiments.

[5] = test system: L. monocytogenes (ATCC BAA-679/EGD-e); assay: Sytox green membrane permeabilization; format: cell-based; settings: B2M 1 mg/ml, up to 1 h; especially at pH 5.5 and 4.5, visible after 15 min
Experimental: Two different readouts (fluorescence plate reader and flow cytometer) were used to measure Sytox green (Invitrogen, Thermo Fisher Scientific, Dreieich, Germany […]) uptake into bacterial cells. For samples analyzed by the flow cytometer, an equivalent of 100 μl of a L. monocytogenes (ATCC BAA-679/EGD-e) culture grown to an OD600nm of 0.1 were harvested by centrifugation and resuspended in 20% TSB dissolved in 20 mM NaPO4 adjusted to three different pH values (pH 7, pH 5.5, pH 4.5). The samples were treated with B2M at a concentration of 1 mg/ml or were mock-treated with ddH2O. After incubation at 37°C for 1 h, the cells were pelleted and resuspended in 20% TSB NaPO4 adjusted to pH 7, pH 5.5, and pH 4.5 containing 0.02 μM Sytox green stain. Quantification was done by FACS analysis. Bacteria treated with 70% isopropanol served as positive control, mocked treated cells (ddH2O) served as negative control. The percentage of Sytox positive cells is depicted by normalizing the analyzed samples to the positive control. L. monocytogenes cells analyzed by fluorescence plate reader were grown till an OD600nm of 0.1 was obtained. Bacterial cells were centrifuged and the pellet was resuspended in one volume of 20% TSB NaPO4 adjusted to pH 7, pH 5.5 and pH 4.5 with 0.2 μM Sytox. […] The fluorescence intensity was measured with a Tecan infinite M plate reader using an excitation wavelength of 488 nm. […]

B2M supernatant: supernatant of B2M solution after fibril formation and centrifugation; contains monomers, oligomers, possibly small fragmented fibrils
zone of inhibition ([1]; B2M 1 mg/ml incubated 30 min 37°C in assay buffer pH 4.5, supernatant after centrifugation, undiluted, mean ± SD): 1.03 ± 0.05 cm
zone of inhibition ([1]; B2M 1 mg/ml incubated 30 min 37°C in assay buffer pH 7, supernatant after centrifugation, undiluted, mean ± SD): 0.27 ± 0.05 cm
zone of inhibition ([1]; pH 4.5 supernatant, diluted 1:2, mean ± SD): 0.90 ± 0.00 cm
zone of inhibition ([1]; pH 4.5 supernatant, diluted 1:4, mean ± SD): 0.83 ± 0.05 cm
zone of inhibition ([1]; pH 4.5 supernatant, diluted 1:8, mean ± SD): 0.63 ± 0.05 cm
zone of inhibition ([1]; pH 4.5 supernatant, diluted 1:16, mean ± SD): 0.43 ± 0.05 cm
zone of inhibition ([1]; pH 7 supernatant, diluted 1:2): 0 cm
zone of inhibition ([1]; pH 7 supernatant, diluted 1:4): 0 cm
zone of inhibition ([1]; pH 7 supernatant, diluted 1:8): 0 cm
zone of inhibition ([1]; pH 7 supernatant, diluted 1:16): 0 cm

ß-2-microglobulin [B2M]
zone of inhibition ([1]; control B2M 125 µg/ml, mean ± SD): 1.03 ± 0.05 cm
zone of inhibition ([1]; control B2M 1 mg/ml, mean ± SD): 1.33 ± 0.05 cm
inhibition zone diameter ([1]; pH modified agarose, pH 4.5): exceeding 1 cm
antimicrobial activity ([1]; pH modified agarose, pH values of 6 and above): no antimicrobial activity
lowest concentration at which dose-dependent antibacterial activity was still detected ([1]; radial diffusion assay, three independent experiments (Figure 3b)): 7.5 mg/L
bacteria still viable (% survival compared to mock-treated) ([2]; pH 4.5, 2 hours): about 10%
bacteria still viable (% survival compared to mock-treated) ([2]; pH 5.5, 2 hours): about 10%
survival rate ([2]; pH 7, 2 hours): 90%
intact bacterial cells in TEM (L. monocytogenes cells): substantial reduction of intact bacterial cells
growth inhibition (Bacillus subtilis): clear dose-dependent growth inhibition
growth inhibition [3]: clear dose-dependent growth inhibition
aggregation state / fibril formation (ThT) ([4]; pH 4.5, 30 min at 37°C, B2M 1 mg/ml): fibril formation
aggregation state / fibril formation (ThT) ([4]; pH 7, B2M working solution 1 mg/ml): non-aggregated form
Sytox green uptake (fluorescence) versus controls [5]: increased fluorescence

B2M fibrils: pelleted mature B2M fibrils dissolved in assay buffer after incubation of B2M 1 mg/ml for 30 min at 37°C
zone of inhibition ([1]; B2M 1 mg/ml incubated 30 min 37°C at pH 4.5, fibril pellet dissolved in 150 µl assay buffer pH 4.5, undiluted): 0 cm
zone of inhibition ([1]; pH 4.5 fibrils, diluted 1:2): 0 cm
zone of inhibition ([1]; pH 4.5 fibrils, diluted 1:4): 0 cm
zone of inhibition ([1]; pH 4.5 fibrils, diluted 1:8): 0 cm
zone of inhibition ([1]; pH 4.5 fibrils, diluted 1:16): 0 cm
zone of inhibition ([1]; pH 7 fibrils (no visible fibril pellet was obtained after centrifugation), undiluted): 0 cm
zone of inhibition ([1]; pH 7 fibrils (no visible pellet), diluted 1:2): 0 cm
zone of inhibition ([1]; pH 7 fibrils (no visible pellet), diluted 1:4): 0 cm
zone of inhibition ([1]; pH 7 fibrils (no visible pellet), diluted 1:8): 0 cm
zone of inhibition ([1]; pH 7 fibrils (no visible pellet), diluted 1:16): 0 cm
